Data: PubChem BioAssay AID456 (Sanford-Burnham Center for Chemical Genomics, 2006)
The list shows a part of the results, in another mix than the full data. Entries with a potency or affinity are not part of this list. Some of these compounds have results that are not shown, active ones among them. Active and inactive are the calls of the source.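 How the source made its calls: active means top tenth filtered wells with inhibition above zero that passed visual or statistical confirmation; inactive means the rest, including hits rejected on review.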

assay: suppression of endothelial VCAM-1 upregulation – imaging, high-content imaging, pooled HUVEC, TNFa stimulus (AID 456); conditions: HUVEC TNFa-induced VCAM-1 surface expression, immunofluorescence imaging

| SMILES | outcome |
| --- | --- |
| O=C(OC1CN2CCC1CC2)C(CO)(c1ccccc1)c1ccccc1 (stereo unspecified) | inactive |
